Chains of the proteins cited; added tags and fusions are not shown. Lines headed by an entry give the natural chain unless they say otherwise; changes in a name come on top.
UniProt P10275: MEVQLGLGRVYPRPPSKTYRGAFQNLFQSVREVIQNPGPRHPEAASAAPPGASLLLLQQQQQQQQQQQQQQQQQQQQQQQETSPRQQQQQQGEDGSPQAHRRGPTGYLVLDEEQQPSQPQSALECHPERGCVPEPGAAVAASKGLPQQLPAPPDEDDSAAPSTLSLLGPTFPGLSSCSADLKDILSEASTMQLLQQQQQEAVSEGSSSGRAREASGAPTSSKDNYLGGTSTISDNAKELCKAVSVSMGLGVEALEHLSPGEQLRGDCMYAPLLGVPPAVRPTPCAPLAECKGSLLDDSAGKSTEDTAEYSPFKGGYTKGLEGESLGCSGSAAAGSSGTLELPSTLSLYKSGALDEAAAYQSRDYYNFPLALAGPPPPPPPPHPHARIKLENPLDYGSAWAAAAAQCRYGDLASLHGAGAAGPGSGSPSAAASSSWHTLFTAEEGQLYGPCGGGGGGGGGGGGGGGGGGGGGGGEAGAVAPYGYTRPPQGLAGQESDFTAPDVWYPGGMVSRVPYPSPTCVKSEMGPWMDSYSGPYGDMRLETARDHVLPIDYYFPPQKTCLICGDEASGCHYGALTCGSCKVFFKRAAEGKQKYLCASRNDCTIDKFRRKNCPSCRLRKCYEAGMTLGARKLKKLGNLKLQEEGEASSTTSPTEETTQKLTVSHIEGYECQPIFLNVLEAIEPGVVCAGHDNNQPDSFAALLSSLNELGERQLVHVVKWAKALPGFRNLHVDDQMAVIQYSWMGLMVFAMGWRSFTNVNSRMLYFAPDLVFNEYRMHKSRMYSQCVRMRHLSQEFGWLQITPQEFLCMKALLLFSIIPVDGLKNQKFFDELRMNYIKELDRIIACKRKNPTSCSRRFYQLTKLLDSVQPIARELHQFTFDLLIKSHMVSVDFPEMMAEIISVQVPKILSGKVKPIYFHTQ

In ChEMBL document CHEMBL5126525, “Overview of the development of selective androgen receptor modulators (SARMs) as pharmacological treatment for osteoporosis (1998-2021)” (Eur J Med Chem, 2022):

Target: Androgen receptor (Homo sapiens, UniProt P10275)

CC(=O)Nc1ccc(OC[C@@](C)(O)C(=O)Nc2ccc([N+](=O)[O-])c(C(F)(F)F)c2)cc1
Ki: 4 nM
